In patent US20240360082A1, “SUBSTITUTED PYRIDONE COMPOUNDS USEFUL TO TREAT ORTH[…]” (priority 2021, published 2024):
Read-outs that look alike come from different tables or passages of the source.

Test system: influenza virus (multiple flu strains)
Test: organism not typed
Conditions: MDCK
[1] = read-out: NA Alaska H3N2, NA assay, Alaska H3N2 strain
[2] = read-out: NA CAL H1N1, NA assay, CAL H1N1 strain
[3] = read-out: NA Alaska H3N2 IC50, NA assay, Alaska H3N2 strain
[4] = read-out: NA CAL H1N1 IC50, NA assay, CAL H1N1 strain
[5] = read-out: NA—PR8 H1N1, NA assay, PR8 H1N1 strain

For Cn1nccc1COc1ccc(-c2cc(C(N)=O)c(=O)[nH]c2C(F)(F)F)cc1 [Example 126, 5-(4-((1-methyl-1H-pyrazol-5-yl)methoxy)phenyl)-2-oxo-6-(trifluoromethyl)-1,2-dihydropyridine-3-carboxamide], which IC50 [1] is on record?
The IC50 was 0.1 to 1 µM.

What about the IC50 [2] of the same compound?
Its IC50 is 1 to 5 µM.

For CC1CN(Cc2ccc(-c3cc(C(N)=O)c(=O)[nH]c3C(F)(F)F)cc2)CCO1 (centres unmarked) [Example 29, 5-(4-((2-methylmorpholino)methyl)phenyl)-2-oxo-6-(trifluoromethyl)-1,2-dihydropyridine-3-carboxamide], which IC50 [1] is on record?
Its IC50 is 0.1 to 1 µM.

What about the IC50 [2] of the same compound?
Its IC50 is 1 to 5 µM.

CS(=O)(=O)Nc1ccc(-c2cc(C(N)=O)c(=O)[nH]c2C(F)(F)F)cc1 [Example 11, 5-(4-(methylsulfonamido)phenyl)-2-oxo-6-(trifluoromethyl)-1,2-dihydropyridine-3-carboxamide] was tested. Which IC50 [1] did it give?
The IC50 was 0.1 to 1 µM.

And the IC50 [2]?
Its IC50 is 1 to 5 µM.

What does the source list for NC(=O)c1cc(-c2ccc(OC[C@H]3COC[C@@H](C4CC4)O3)cc2)c(C(F)(F)F)[nH]c1=O [Example 325, 5-(4-(((2R,6R)-6-cyclopropyl-1,4-dioxan-2-yl)methoxy)phenyl)-2-oxo-6-(trifluoromethyl)-1,2-dihydropyridine-3-carboxamide]?
IC50 [3]: 0.01 to 0.1 µM; IC50 [4]: 0.1 to 1 µM

With COc1cc(COc2ccc(-c3cc(C(N)=O)c(=O)[nH]c3C(F)(F)F)cc2)c(F)cn1 [Example 130, 5-(4-((5-fluoro-2-methoxypyridin-4-yl)methoxy)phenyl)-2-oxo-6-(trifluoromethyl)-1,2-dihydropyridine-3-carboxamide] as the compound, how does the IC50 [1] read?
The IC50 was 1 to 5 µM.

And the IC50 [2]?
The IC50 was 1 to 5 µM.

What does the source list for CC(C)S(=O)(=O)N1CCOC(COc2ccc(-c3cc(C(N)=O)c(=O)[nH]c3C(F)(F)F)cc2)C1 (centres unmarked) [Example 191, 5-(4-((4-(isopropylsulfonyl)morpholin-2-yl)methoxy)phenyl)-2-oxo-6-(trifluoromethyl)-1,2-dihydropyridine-3-carboxamide]?
IC50 [1]: 0.1 to 1 µM; IC50 [2]: 25 to 50 µM

With NC(=O)c1cc(-c2ccc(OCc3cccnc3F)cc2)c(C(F)(F)F)[nH]c1=O [Example 129, 5-(4-((2-fluoropyridin-3-yl)methoxy)phenyl)-2-oxo-6-(trifluoromethyl)-1,2-dihydropyridine-3-carboxamide] as the compound, how does the IC50 [1] read?
Its IC50 is 0.1 to 1 µM.

What about the IC50 [2] of the same compound?
Its IC50 is 1 to 5 µM.

NC(=O)c1cc(-c2ccc(OC(F)F)cc2)c(C(F)(F)F)[nH]c1=O [Example 12, 5-(4-(difluoromethoxy)phenyl)-2-oxo-6-(trifluoromethyl)-1,2-dihydropyridine-3-carboxamide] was tested. Which IC50 [1] did it give?
Its IC50 is 5 to 10 µM.

And the IC50 [2]?
Its IC50 is 25 to 50 µM.

And the IC50 [5]?
The IC50 was 10 to 25 µM.

Which IC50 [3] does the source give for NC(=O)c1cc(-c2ccc(OCC3(F)COC3)cc2)c(C(F)(F)F)[nH]c1=O [Example 226, 5-(4-((3-fluorooxetan-3-yl)methoxy)phenyl)-2-oxo-6-(trifluoromethyl)-1,2-dihydropyridine-3-carboxamide] here?
Its IC50 is 0.1 to 1 µM.

And the IC50 [4]?
Its IC50 is 1 to 5 µM.

CC1(COc2ccc(-c3cc(C(N)=O)c(=O)[nH]c3C(F)(F)F)cc2)COC1 [Example 227] was tested. Which IC50 [3] did it give?
The IC50 was 0.1 to 1 µM.

And the IC50 [4]?
Its IC50 is 1 to 5 µM.

CNc1ncc(COc2ccc(-c3cc(C(N)=O)c(=O)[nH]c3C(F)(F)F)cc2)cn1 [Example 158, 5-(4-((2-(methylamino)pyrimidin-5-yl)methoxy)phenyl)-2-oxo-6-(trifluoromethyl)-1,2-dihydropyridine-3-carboxamide] was tested. Which IC50 [1] did it give?
Its IC50 is 0.01 to 0.1 µM.

What about the IC50 [2] of the same compound?
The IC50 was 1 to 5 µM.

Which results are given for C[C@H]1COC[C@@H](COc2ccc(-c3cc(C(N)=O)c(=O)[nH]c3C(F)(F)F)cc2)O1 [Example 330, 5-(4-(((2S,6S)-6-methyl-1,4-dioxan-2-yl)methoxy)phenyl)-2-oxo-6-(trifluoromethyl)-1,2-dihydropyridine-3-carboxamide]?
IC50 [3]: 0.01 to 0.1 µM; IC50 [4]: 0.01 to 0.1 µM

For NC(=O)c1cc(-c2ccc(OCC3COCCO3)c(Cl)c2)c(C(F)(F)F)[nH]c1=O (centres unmarked) [Example 240, 5-(4-((1,4-dioxan-2-yl)methoxy)-3-chlorophenyl)-2-oxo-6-(trifluoromethyl)-1,2-dihydropyridine-3-carboxamide], which IC50 [3] is on record?
The IC50 was 0.1 to 1 µM.

What about the IC50 [4] of the same compound?
The IC50 was 5 to 10 µM.

How did the IC50 [1] turn out when NC(=O)c1cc(-c2ccc(OCc3cncs3)cc2)c(C(F)(F)F)[nH]c1=O [Example 134, 2-oxo-5-(4-(thiazol-5-ylmethoxy)phenyl)-6-(trifluoromethyl)-1,2-dihydropyridine-3-carboxamide] was run?
The IC50 was 0.1 to 1 µM.

And the IC50 [2]?
The IC50 was 1 to 5 µM.

How did the IC50 [1] turn out when NC(=O)c1cc(-c2ccc(OCc3ccc4c(c3)OCCCO4)cc2)c(C(F)(F)F)[nH]c1=O [Example 149, 5-(4-((3,4-dihydro-2H-benzo[b][1,4]dioxepin-7-yl)methoxy)phenyl)-2-oxo-6-(trifluoromethyl)-1,2-dihydropyridine-3-carboxamide] was run?
Its IC50 is 1 to 5 µM.

And the IC50 [2]?
Its IC50 is 10 to 25 µM.

Which IC50 [1] does the source give for NC(=O)c1cc(-c2ccc(OCC3CCCCC3)cc2)c(C(F)(F)F)[nH]c1=O [Example 58, 5-(4-(cyclohexylmethoxy)phenyl)-2-oxo-6-(trifluoromethyl)-1,2-dihydropyridine-3-carboxamide] here?
The IC50 was 5 to 10 µM.

What about the IC50 [2] of the same compound?
Its IC50 is 1 to 5 µM.

For NC(=O)c1cc(-c2ccc(OCC3CCCO3)cc2)c(C(F)(F)F)[nH]c1=O (centres unmarked) [Example 232, 2-oxo-5-(4-((tetrahydrofuran-2-yl)methoxy)phenyl)-6-(trifluoromethyl)-1,2-dihydropyridine-3-carboxamide], which IC50 [3] is on record?
The IC50 was 0.1 to 1 µM.

What about the IC50 [4] of the same compound?
Its IC50 is 0.1 to 1 µM.

How did the IC50 [1] turn out when COc1cncc(COc2ccc(-c3cc(C(N)=O)c(=O)[nH]c3C(F)(F)F)cc2)c1 [Example 146, 5-(4-((5-methoxypyridin-3-yl)methoxy)phenyl)-2-oxo-6-(trifluoromethyl)-1,2-dihydropyridine-3-carboxamide] was run?
The IC50 was 0.1 to 1 µM.

And the IC50 [2]?
Its IC50 is 0.1 to 1 µM.

For N#Cc1cccc(-c2cc(C(N)=O)c(=O)[nH]c2C(F)(F)F)c1 [Example 8, 5-(3-cyanophenyl)-2-oxo-6-(trifluoromethyl)-1,2-dihydropyridine-3-carboxamide], which IC50 [5] is on record?
Its IC50 is 10 to 25 µM.

With Cc1cc(C)nc(COc2ccc(-c3cc(C(N)=O)c(=O)[nH]c3C(F)(F)F)cc2)c1 [Example 135] as the compound, how does the IC50 [1] read?
Its IC50 is 0.1 to 1 µM.

What about the IC50 [2] of the same compound?
Its IC50 is 0.1 to 1 µM.

How did the IC50 [5] turn out when CN(C)CCCOc1ccc(-c2cc(C(N)=O)c(=O)[nH]c2C(F)(F)F)cc1 [Example 21, 5-(4-(3-(dimethylamino)propoxy)phenyl)-2-oxo-6-(trifluoromethyl)-1,2-dihydropyridine-3-carboxamide] was run?
The IC50 was 5 to 10 µM.
